{
  "sequences": {"note": "Chains of the proteins cited; added tags and fusions are not shown. Residues count along the entry.", "UniProt Q96KQ7, 913-1193 limits assumed": "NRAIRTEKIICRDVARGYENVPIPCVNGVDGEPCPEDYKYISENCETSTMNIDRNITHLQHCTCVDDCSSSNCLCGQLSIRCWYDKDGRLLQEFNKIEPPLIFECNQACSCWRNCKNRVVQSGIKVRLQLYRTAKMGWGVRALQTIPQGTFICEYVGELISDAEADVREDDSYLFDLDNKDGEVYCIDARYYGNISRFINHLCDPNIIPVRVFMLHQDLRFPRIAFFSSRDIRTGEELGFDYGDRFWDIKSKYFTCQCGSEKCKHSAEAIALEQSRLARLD"},
  "source": "PubChem BioAssay AID504332",
  "about": "(National Center for Advancing Translational Sciences (NCATS), 2011)",
  "note": "The entries are a selection whose mix differs from that of the whole data set. Results filed as inconclusive are left out. Active and inactive are the calls of the source. Calls follow the shape of the dose curve; as a rule, active = well fitted inhibition curve with a large enough effect; inconclusive = small, poorly fitted or top-dose-only effect; inactive = no such curve, though single readings can be large or run the other way. % is scaled to controls: 0 for no effect and ±100 for the full control effect.",
  "data": [
    {"target": "Histone-lysine N-methyltransferase EHMT2 (Homo sapiens) (UniProt Q96KQ7)", "assay": "qHTS Assay for Inhibitors of Histone Lysine Methyltransferase G9a; also: nearly all actives have a fitted effect of over 75% in size", "details": "G9a H3K9 monomethylation, AlphaScreen, 2 h; at 59 µM (top of the series)", "values": [
      {"smiles": "CN(CCCl)CCCl", "activity, negative = inhibition": "inactive: -0.907%"}
    ]}
  ]
}
